Reference: ChEMBL document CHEMBL3414440, “Pure enantiomers of benzoylamino-tranylcypromine: LSD1 inhibition, gene modulation in human leukemia cells and effects on clonogenic potential of murine promyelocytic blasts” (Eur J Med Chem, 2015)

The chains behind the UniProt entries cited, without tags or fusion partners.
UniProt P27338, whole entry: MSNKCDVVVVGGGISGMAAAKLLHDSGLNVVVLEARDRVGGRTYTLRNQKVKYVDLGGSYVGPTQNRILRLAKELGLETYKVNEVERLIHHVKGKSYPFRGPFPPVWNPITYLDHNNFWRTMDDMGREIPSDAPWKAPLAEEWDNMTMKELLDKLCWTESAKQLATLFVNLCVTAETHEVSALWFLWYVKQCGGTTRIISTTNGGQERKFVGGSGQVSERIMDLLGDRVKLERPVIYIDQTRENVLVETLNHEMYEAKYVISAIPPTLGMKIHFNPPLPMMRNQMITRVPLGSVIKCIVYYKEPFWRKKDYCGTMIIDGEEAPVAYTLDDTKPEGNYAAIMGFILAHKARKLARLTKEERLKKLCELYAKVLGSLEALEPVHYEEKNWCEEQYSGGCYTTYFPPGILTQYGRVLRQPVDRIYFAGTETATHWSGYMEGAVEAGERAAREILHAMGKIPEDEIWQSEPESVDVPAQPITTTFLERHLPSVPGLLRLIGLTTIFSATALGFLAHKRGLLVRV
UniProt P21397, whole entry: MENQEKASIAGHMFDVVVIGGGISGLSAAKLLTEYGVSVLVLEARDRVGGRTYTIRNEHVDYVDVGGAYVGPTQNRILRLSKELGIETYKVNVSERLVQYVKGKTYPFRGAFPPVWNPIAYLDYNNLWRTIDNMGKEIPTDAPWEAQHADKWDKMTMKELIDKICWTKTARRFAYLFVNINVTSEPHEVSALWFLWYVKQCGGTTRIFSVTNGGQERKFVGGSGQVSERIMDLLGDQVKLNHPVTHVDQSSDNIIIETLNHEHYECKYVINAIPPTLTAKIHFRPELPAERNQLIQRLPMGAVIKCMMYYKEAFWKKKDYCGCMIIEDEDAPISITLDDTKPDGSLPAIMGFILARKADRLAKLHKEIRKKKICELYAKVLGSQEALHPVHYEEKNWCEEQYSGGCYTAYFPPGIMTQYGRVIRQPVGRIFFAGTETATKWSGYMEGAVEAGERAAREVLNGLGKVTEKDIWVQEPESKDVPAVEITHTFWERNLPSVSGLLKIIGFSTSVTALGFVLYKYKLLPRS

Assays:
[1] = molecular target: Amine oxidase [flavin-containing] B (Homo sapiens, UniProt P27338)
[2] = molecular target: Amine oxidase [flavin-containing] A (Homo sapiens, UniProt P21397)

SMILES | IC50 [1] [µM] | IC50 [2] [nM]
N[C@H]1C[C@@H]1c1ccc(NC(=O)c2ccccc2)cc1 | 12.3 | 39
N[C@@H]1C[C@H]1c1ccc(NC(=O)c2ccccc2)cc1 | 16.8 | 24
N[C@@H]1C[C@@H]1c1ccc(NC(=O)c2ccccc2)cc1 | 19.2 | 37

Continued, values first:

IC50 [1] [µM] | IC50 [2] [nM] | SMILES
21.2 | 25 | N[C@H]1C[C@H]1c1ccc(NC(=O)c2ccccc2)cc1
8.98 | 31 | NC1CC1c1ccc(NC(=O)c2ccccc2)cc1 (racemic)
